Consider 2 compounds from patent publication US20250115636A1, “PEPTIDOMIMETIC INHIBITORS OF PROTEIN N-TERMINAL […] 1, COMPOSITION, AND METHOD OF USE” (Purdue Research Foundation, priority 2022, published 2025).

Chains of the proteins cited; added tags and fusions are not shown.
UniProt Q9BV86, whole entry: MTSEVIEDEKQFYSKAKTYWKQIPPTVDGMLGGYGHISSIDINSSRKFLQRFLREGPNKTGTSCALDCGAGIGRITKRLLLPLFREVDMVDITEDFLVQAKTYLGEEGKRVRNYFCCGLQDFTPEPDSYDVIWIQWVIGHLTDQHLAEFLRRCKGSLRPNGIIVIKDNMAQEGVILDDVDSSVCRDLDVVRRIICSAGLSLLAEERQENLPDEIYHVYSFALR

Data set [1] relates to me3-RCC1. Conditions: at 1 mM in HCT116 cells, previously reported; cited from earlier work.
The target in data set [2] is T1, NTMT1 (Homo sapiens, UniProt Q9BV86). Conditions: previously reported inhibitors; cited from earlier work.
Data set [3] is described as follows: Parallel Artificial Membrane Permeability Assay (PAMPA).
Data set [4] concerns the target T1, NTMT1. Description: NTMT1 biochemical assay (SAHH-coupled fluorescence assay). Conditions: ratio of NTMT1 IC50 to that of DC541.

The structures appear in SMILES notation.

With `N=C(N)NCCC[C@H](NC(=O)[C@H](CCCCN)NC(=O)[C@@H]1CCCN1C(=O)Cc1cccc2ccccc12)C(N)=O`, the “Decrease of the cellular me3-RCC1 level” value in data set [1] is listed as 50%. Also, in data set [2], the IC50 is 100 nM.

As to `CN(CCc1ccccc1)C(=O)[C@H](CCCCN)NC(=O)[C@@H]1CCCN1C(=O)Cc1cccc2ccccc12`, the “Improvement in cell permeability compared to 1d” value in data set [3] is given as “about 2 fold”. For the same compound, in data set [4], the “IC50/IC50 (DC541)” value is 5.0.
